Data published in PubChem BioAssay (Tox21).
Where “and” joins values, the source holds several entries; their conditions need not be identical. Equal values may be shown once. The list shows a part of the results, in another mix than the full data. Inconclusive results are not listed. Calls of active or inactive are those of the source. The call rests on the fitted dose curve; in most records, active means well fitted cell-killing curve with a large enough effect in the repeat runs; inconclusive means weak or mixed curves, or effect the other way; inactive means flat fitted curve, though single readings scatter.

Assay: qHTS RealTime-Glo MT Cell Viability Assay in HEK293 cells - 0 hour (AID 1224880); further: top concentration of the series differs between compounds; nearly all actives have a fitted effect of over 45% in size
Settings: RealTime-Glo luminescence, at 35.3 µM (top of the series)
Excerpt: U.S. Tox21 Program National Center for Advancing Translational Sciences [NCATS] NIH Chemical Genomics Center [NCGC] U.S. Environmental Protection Agency [EPA] National Institutes of Environmental Health Sciences [NIEHS] National Toxicology Program [NTP] U.S. Food and Drug Administration [FDA] Tox21 Assay Overview: Measure of cell viability is critical in the cell-base assay. Analysis of cell viability is necessary for the characterization of cell responses to cytotoxic drugs and environmental stress. A RealTime-Glo MT Cell Viability Assay to monitor cell viability in real time of continues cell culture during 40 hours of compound treatment was used to screen Tox21 10K library compounds in Hek293 cells. The RealTime-Glo MT Cell Viability Assay is a nonlytic, homogeneous, bioluminescent method to measure cell viability in real time using a simple, plate-based method. The assay involves adding NanoLuc luciferase and a cell-permeant prosubstrate to cells in culture. Viable cells reduce the proprietary prosubstrate to generate a substrate for NanoLuc luciferase. This substrate diffuses from cells into the surrounding culture medium, where it is rapidly used by the NanoLuc Enzyme to produce a luminescent signal. The signal correlates with the number of viable cells, making the assay well suited for cytotoxicity studies.
Tox21 Assay Protocol Summary: The mixture of Hek293 cell suspension and reagents were dispensed at 600cells/6 ul/well in 1536-well tissue culture treated black solid bottom plates using a Multidrop dispenser. After the assay plates were incubated at a 37 C/5% CO2 incubator for 5 hours, 23 nL of compounds dissolved in DMSO, positive and negative controls was transferred to the assay plate by a pintool work station. The plates were incubated at 37 C for 40 hours. The luminescence intensity were measured at 0h, 8h, 16h, 24h, 32h and 40h time points using ViewLux plate reader during compound treatment.
On the % scale 0 is the no-effect control and ±100 the full control effect.

Row | Compound | activity change, negative = cytotoxicity
1 | NC(=O)Nc1ccc([As](=O)(O)O)cc1 | inactive: -3.42%

Same assay, conditions: RealTime-Glo luminescence, at 76.8 µM (top of the series)

Row | Compound | activity change, negative = cytotoxicity
2 | NC(=O)Nc1ccc([As](=O)(O)O)cc1 | inactive: 4.29%

Same assay, conditions: RealTime-Glo luminescence; at 76.8 µM (top of the series) unless noted

Row | Compound | activity change, negative = cytotoxicity
3 | O=[P+](Oc1ccccc1)Oc1ccccc1 | inactive: 12.8%
4 | CN(N=O)C(=N)N[N+](=O)[O-] | inactive: -0.742%
5 | CCOP(=S)(CC)Sc1ccccc1 (configuration not stated) | inactive: -7.82%
6 | O=[N+]([O-])c1ccc(S(=O)(=O)O)c([N+](=O)[O-])c1 | inactive: 18.5%
7 | O=[p+]1oc2ccccc2c2ccccc21 (configuration not stated) | inactive: 5.69%
8 | Cc1cc([N+](=O)[O-])c(O)c([N+](=O)[O-])c1 | inactive: -23.1%
9 | CCNC(C)Cc1ccc2c(c1)OCO2 (configuration not stated) | inactive: -2.42%
10 | O=P(Cl)(Cl)c1ccccc1 | inactive: 0.914%
11 | O=P(Cl)(Oc1ccccc1)Oc1ccccc1 | inactive: -4.04%
12 | CCCCC(CC)CO[P+](=O)OCC(CC)CCCC (configuration not stated) | inactive: 3.59%
13 | CCOC(=O)Cl | inactive: -0.614%
14 | O=C1C2CC=CCC2C(=O)N1SC(Cl)(Cl)C(Cl)Cl (configuration not stated) | inactive: -18.9% and inactive: -7.05%
15 | CCC(C)(OOC(C)(C)C)OOC(C)(C)C | inactive: 6.82% [at 15.8 µM]
16 | CC(C)OP(=S)(OC(C)C)SCCNS(=O)(=O)c1ccccc1 | inactive: -1.63%
17 | N#CSc1ccc([N+](=O)[O-])cc1[N+](=O)[O-] | inactive: -5.57%
18 | CN(C(=O)Cc1ccccc1)[C@H]1CC[C@@]2(CCCO2)C[C@@H]1N1CCCC1 | inactive: -0.694% [at 35.3 µM]
19 | CCCCOP(OCCCC)OCCCC | inactive: 3.64%
20 | CCCCO[P+](=O)OCCCC | inactive: -4.15% and inactive: 1.07%
21 | O=[As]c1ccccc1 (configuration not stated) | inactive: 3.43%
22 | COC(=O)Cl | inactive: 2.88%
23 | O=C(Cl)OCCOC(=O)Cl | inactive: -16.4%
24 | ClP(Cl)c1ccccc1 | inactive: 6.52%
25 | CN(C(=O)Cc1ccc(Cl)c(Cl)c1)[C@H]1CC[C@@]2(CCCO2)C[C@@H]1N1CCCC1 | inactive: 3.76% [at 35.3 µM]
26 | CCCCCCCCCCCCCC[P+](CCCCCC)(CCCCCC)CCCCCC | inactive: -3.55%
27 | CC(C)CCCCCCCOP(OCCCCCCCC(C)C)Oc1ccccc1 | inactive: -4.25%
28 | CN(C(=O)Cc1cccc2occc12)[C@H]1CC[C@@]2(CCCO2)C[C@@H]1N1CCCC1 | inactive: 2.53%
29 | Cc1cc([N+](=O)[O-])cc([N+](=O)[O-])c1O | inactive: -1.45% and inactive: -3.95%
30 | O=[N+]([O-])c1ccc([N+](=O)[O-])cc1 | inactive: 3.76%
31 | O=C(Cl)Oc1ccccc1 | inactive: -3.15%
32 | COP(=S)(Cl)OC | inactive: -4.07%
